# Experimental data reported in PubChem BioAssay AID485297 (National Center for Advancing Translational Sciences (NCATS), 2010).
# The list shows a part of the results, in another mix than the full data. Results filed as inconclusive are left out. Calls of active or inactive are those of the source. Calls follow the shape of the dose curve; as a rule, active = well fitted activation curve with a large enough effect; inconclusive = small, poorly fitted or top-dose-only effect; inactive = no such curve, though single readings can be large or run the other way.
# Test: qHTS Assay for Rab9 Promoter Activators; also: % of control where 0% means no effect; nearly all actives have a fitted effect of over 60% in size
# Settings: Huh7 Rab9 promoter-luciferase reporter, luminescence, 24 h
# [1] = at 9.22 µM (top of the series) unless noted
structure (smiles),measurement,setting,value
O=C(COc1ccccc1)OC1CN2CCC1CC2 (centres undefined),"activation, negative = inhibition",[1],inactive: 1.26%
COP1(=S)c2c(C)nn(CCC#N)c2N=C(c2ccc(F)cc2)N1C (centres undefined),"activation, negative = inhibition",[1],inactive: -2.49%
CCC(C)N(CC(C)C)C(=S)SC(NC(C)=O)C(Cl)(Cl)Cl (centres undefined),"activation, negative = inhibition",[1],inactive: 0.343%
O=C(OC1CN2CCC1CC2)c1cccc([N+](=O)[O-])c1 (centres undefined),"activation, negative = inhibition",[1],inactive: 5.83%
CC(C)(C)C(=O)NC(Sc1ncccn1)C(Cl)(Cl)Cl (centres undefined),"activation, negative = inhibition",[1],inactive: -4.2%
Clc1n[nH]nc1-c1nn[nH][15n]1,"activation, negative = inhibition",[1],inactive: 12.7%
CCOP(=O)(Nc1ccc(C)cn1)OCC,"activation, negative = inhibition",[1],inactive: 7.3%
CN(CCCl)Cc1cc(Cl)c(NC2=NCCN2)c(Cl)c1,"activation, negative = inhibition",[1],inactive: -3.02% [at 46.1 µM]
CCOP(=O)(NC(=NC(C)c1ccccc1)NC(C)c1ccccc1)OCC (centres undefined),"activation, negative = inhibition",[1],inactive: 6.64%
CCC1=CC2Cc3nc4ccc(Cl)cc4c(N)c3C(C1)C2 (centres undefined),"activation, negative = inhibition",[1],inactive: 2.9e-05%
O=P1(Nc2ccccn2)COc2ccccc2OC1,"activation, negative = inhibition",[1],inactive: 0.078%
O=[As](O)(c1ccccc1Br)c1ccccc1Br,"activation, negative = inhibition",[1],inactive: -4.12%
CN(C(=O)Cc1ccc(Cl)c(Cl)c1)[C@@H]1CCCC[C@H]1N1CCCC1,"activation, negative = inhibition",[1],inactive: -2.39%
CC(C)/C=N\N=C(\N)N[N+](=O)[O-],"activation, negative = inhibition",[1],inactive: -7.39%
COc1ccccc1CNC(=O)COC(=O)C(O)(c1ccccc1)c1ccccc1,"activation, negative = inhibition",[1],inactive: -0.541%
O=C(/C=C/c1ccccc1)OC1CN2CCC1CC2 (centres undefined),"activation, negative = inhibition",[1],inactive: -0.494%
CN(C)C1(CNC(=O)c2ccc(S(C)(=O)=O)cc2)CCCCC1,"activation, negative = inhibition",[1],inactive: -3.48%
Cc1ccc(C(=O)OC2CN3CCC2CC3)cc1 (centres undefined),"activation, negative = inhibition",[1],inactive: 0.0592%
CC1CCC(C(C)C)C(OP(=O)(Nc2ccccn2)c2ccccc2)C1 (centres undefined),"activation, negative = inhibition",[1],inactive: -0.241%
Cc1nn(-c2ccccc2)c2c1P(=O)(N1CCOCC1)N(C)C(c1ccccc1)=N2 (centres undefined),"activation, negative = inhibition",[1],inactive: -3.38%
O=[As](O)(c1cccs1)c1cccs1,"activation, negative = inhibition",[1],inactive: 7.11%
Cc1ccc(OCC(=O)OC2CN3CCC2CC3)cc1 (centres undefined),"activation, negative = inhibition",[1],inactive: -6.14%
NS(=O)(=O)c1cccc(NC(=O)COC(=O)C(O)(c2ccccc2)c2ccccc2)c1,"activation, negative = inhibition",[1],inactive: -0.282%
O=P1(Nc2ccc(Br)cn2)COc2ccccc2OC1,"activation, negative = inhibition",[1],inactive: 6.53%
Nc1cccc([As](=O)(O)c2ccccc2)c1,"activation, negative = inhibition",[1],inactive: 0.833%
O=P1(Nc2ncccn2)COc2ccccc2OC1,"activation, negative = inhibition",[1],inactive: -1.36%
O=C(O)COc1ccc([As](=O)(O)O)cc1[N+](=O)[O-],"activation, negative = inhibition",[1],inactive: 2%
Nc1ccccc1[As](=O)(O)c1ccccc1,"activation, negative = inhibition",[1],inactive: -1.66%
CS(=O)(=O)c1cc([N+](=O)[O-])c2no[n+]([O-])c2c1,"activation, negative = inhibition",[1],inactive: 2.61%
O=P(Nc1nccs1)(Oc1ccccc1)Oc1ccccc1,"activation, negative = inhibition",[1],inactive: -0.792%
O=P(Nc1nccs1)(c1ccccc1)c1nc2ccccc2s1 (centres undefined),"activation, negative = inhibition",[1],inactive: -1.3%
CCOP1(=S)c2c(C)nn(CCC#N)c2N=C(c2ccccc2F)N1C (centres undefined),"activation, negative = inhibition",[1],inactive: -4.18%
O=[N+]([O-])c1ccc2c(c1)nnn2O,"activation, negative = inhibition",[1],inactive: -2.55%
CN(C(=O)Cc1ccccc1)[C@@H]1CC[C@]2(CCCO2)C[C@H]1N1CCCC1,"activation, negative = inhibition",at 9.22 µM (top of the series),inactive: 0.18%
same,"activation, negative = inhibition",at 46.1 µM (top of the series),inactive: -14.8%
CCOP1(=S)c2c(C)nn(CCC#N)c2N=C(c2ccc(F)cc2)N1C (centres undefined),"activation, negative = inhibition",[1],inactive: -2.18%
N#CCCN(C(=O)COC(=O)C(O)(c1ccccc1)c1ccccc1)c1ccc(F)cc1,"activation, negative = inhibition",[1],inactive: 2.67%
NC(=O)Nc1ccc([As](=O)(O)O)cc1,"activation, negative = inhibition",[1],inactive: -2.84%
O=[As](O)(c1cccc(O)c1)c1cccc(O)c1,"activation, negative = inhibition",[1],inactive: -3.39%
CS(=O)(=O)c1ccc(Cl)c(NC(=O)COC(=O)C(O)(c2ccccc2)c2ccccc2)c1,"activation, negative = inhibition",[1],inactive: -4.46%
O=[As](O)(O)c1cccnc1,"activation, negative = inhibition",[1],inactive: -1.68%
COc1cc(C(=O)NCC2(N3CCOCC3)CCCCC2)cc(Cl)c1OC(C)C,"activation, negative = inhibition",[1],inactive: -3.95%
CN(C(=O)Cc1ccc(Cl)c(Cl)c1)[C@@H]1CC[C@]2(CCCO2)C[C@H]1N1CCCC1,"activation, negative = inhibition",[1],inactive: -7.63% [at 46.1 µM]
O=C(OC1CN2CCC1CC2)c1ccc(Cl)cc1 (centres undefined),"activation, negative = inhibition",[1],inactive: -1.43%
CCOP(=O)(Nc1cccc2ccccc12)OCC,"activation, negative = inhibition",[1],inactive: -1%
COc1cc(C2NCCC3(OCCO3)C2(C)C)cc(OC)c1OC (centres undefined),"activation, negative = inhibition",[1],inactive: 2.49%
CCCOP(=S)(Nc1nc(N)cc(=O)[nH]1)OCCC,"activation, negative = inhibition",[1],inactive: -1.22%
Nc1cccc2c([As](=O)(O)O)cccc12,"activation, negative = inhibition",[1],inactive: -1.95%
Cc1ccc(NCCc2c([N+](=O)[O-])cc([N+](=O)[O-])cc2[N+](=O)[O-])cc1,"activation, negative = inhibition",[1],inactive: -2.31%
